One may read the IC50 as the concentration that inhibits the measured activity by half. High values mean weaker potency, low ones greater potency.

The nature of the assay: Caco-2 cells assay: To determine potency of compounds on inhibition of transporters, bi-directional transport studies are performed in Caco-2 cells (American Type Culture Collection, Manassas, Va.) at 37° C. in air, according toXia et al. (Expression, localization and functional characteristics of breast cancer resistance protein in Caco-2 cells. Drug Met. Disp., 33 (5): 637-643 (2005)). Prior to …. In kind it is cell-based. The settings on record: Caco-2, 0.5 h. (Passage across Caco-2 layers is used to estimate intestinal permeability.)

`COc1ccc2c3c([nH]c2c1)[C@H](CC(C)C)N1C(=O)[C@H](CCC(=O)OC(C)(C)C)NC(=O)[C@@H]1C3` yielded an IC50 above 30 µM.

The record behind these values is ChEMBL document CHEMBL5725207, “Inhibitor of breast cancer resistance protein (BCRP)” (2017).
